Data as given in patent US8609650B2, “Bridged bicyclic aryl and bridged bicyclic heteroaryl substituted triazoles useful as Axl inhibitors” (Rigel Pharmaceuticals, Inc., priority 2006, dated 2013).

Protein sequences, listed by entry. Tags and fused reporters are not part of them. Residues count along the entry.
UniProt P30530, 26-894 limits assumed: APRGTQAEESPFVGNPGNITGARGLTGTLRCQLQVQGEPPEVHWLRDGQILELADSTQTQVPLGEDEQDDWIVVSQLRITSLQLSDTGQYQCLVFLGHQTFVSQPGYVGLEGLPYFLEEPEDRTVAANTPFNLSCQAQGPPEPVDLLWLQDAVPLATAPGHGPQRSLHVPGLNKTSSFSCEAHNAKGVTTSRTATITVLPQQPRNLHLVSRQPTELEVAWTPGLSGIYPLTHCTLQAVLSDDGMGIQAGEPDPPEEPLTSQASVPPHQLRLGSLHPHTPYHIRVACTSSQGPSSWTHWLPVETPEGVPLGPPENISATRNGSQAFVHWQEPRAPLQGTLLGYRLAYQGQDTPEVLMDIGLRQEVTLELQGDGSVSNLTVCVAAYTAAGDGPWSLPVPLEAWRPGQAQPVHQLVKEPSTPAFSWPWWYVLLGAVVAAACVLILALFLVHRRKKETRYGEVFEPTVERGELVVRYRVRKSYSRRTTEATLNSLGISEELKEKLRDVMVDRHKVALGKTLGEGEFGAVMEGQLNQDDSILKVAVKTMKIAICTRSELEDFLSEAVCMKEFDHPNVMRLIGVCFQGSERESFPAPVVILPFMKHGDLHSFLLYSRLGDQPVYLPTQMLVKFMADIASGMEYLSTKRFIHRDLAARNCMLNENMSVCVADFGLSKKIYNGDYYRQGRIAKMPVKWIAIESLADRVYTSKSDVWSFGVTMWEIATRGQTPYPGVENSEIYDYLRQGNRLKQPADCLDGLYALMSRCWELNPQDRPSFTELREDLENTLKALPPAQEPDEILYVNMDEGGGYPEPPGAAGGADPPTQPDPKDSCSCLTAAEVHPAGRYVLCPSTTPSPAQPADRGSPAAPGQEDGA

Molecular target: Axl (Homo sapiens, UniProt P30530)
Experiment: Phospho-Akt In-Cell Western Assay (ability to inhibit Axl activity)
Conditions: Hela cells, stimulated by Axl-antibody cross-linking, phospho-Akt chemiluminescence normalized to relative cell number
Protocol: The compounds of the invention were tested in the following assay for their ability to inhibit Axl activity.
Phospho-Akt In-Cell Western Assay […]

## Nc1nc(Nc2ccc(C3CCN(C4CC5CCC4C5)CC3)cc2)nn1-c1ncc2c(n1)C1CCC2C1 (stereo not shown)
  IC50: > 20 µM
